Publication PMC6797804, “Histone H3K23-specific acetylation by MORF is coupled to H3K14 acylation” (Nature Communications, 2019)
Numbering of substitutions follows the chain as printed.

Chains of the proteins cited; added tags and fusions are not shown. Residues count along the entry.
UniProt Q8WYB5, 211-322: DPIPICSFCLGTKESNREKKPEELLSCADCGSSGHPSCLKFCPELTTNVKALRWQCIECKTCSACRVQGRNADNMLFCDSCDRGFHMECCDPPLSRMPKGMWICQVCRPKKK
UniProt Q8WYB5, 211-322 F287A: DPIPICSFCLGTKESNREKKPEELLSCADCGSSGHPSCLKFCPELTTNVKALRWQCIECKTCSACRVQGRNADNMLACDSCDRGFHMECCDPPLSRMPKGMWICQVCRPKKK

Legend:
MORFDPF F218A = target: T1, MORFDPF F218A (Homo sapiens, UniProt Q8WYB5, F218A); assay: Tryptophan fluorescence binding, MORFDPF F218A; design: unit not given beside the values; details: source data Fig. 2c, MORF-DPF F218A, unit not given
T1 construct: Unlabeled and ^15N-labeled WT and mutated MORFDPF (residues 211–322) were expressed in E. coli Rosetta2 (DE3) pLysS cells; GST (N); made in house; host or cells: E. coli Rosetta2 (DE3) pLysS
T1 sequence (Q8WYB5 211-322 F218A): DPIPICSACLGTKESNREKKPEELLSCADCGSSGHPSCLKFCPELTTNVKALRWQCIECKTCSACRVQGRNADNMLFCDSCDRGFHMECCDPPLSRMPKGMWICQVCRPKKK
Protocol: Spectra were recorded at 25 °C on a Fluoromax-3 spectrofluorometer (HORIBA).

[1] = target: T2, MORFDPF (residues 211–322) (Homo sapiens, UniProt Q8WYB5); details: WT MORFDPF; peer review file; ref Klein et al., Structure 2017;25(4):650–654.e2; read-out: Kd (affinity) as quoted by reviewer; cited from earlier work
T2 construct: Unlabeled and ^15N-labeled WT and mutated MORFDPF (residues 211–322) were expressed in E. coli Rosetta2 (DE3) pLysS cells; GST (N); made in house; host or cells: E. coli Rosetta2 (DE3) pLysS
T2 sequence (Q8WYB5 211-322): T1 sequence (Q8WYB5 211-322 F218A) with A8F

MORFDPF F287A = target: T3, MORFDPF F287A (Homo sapiens, UniProt Q8WYB5, F287A); assay: NMR 1H,15N HSQC titration, MORFDPF F287A; type: binding
T3 construct: Unlabeled and ^15N-labeled WT and mutated MORFDPF (residues 211–322) were expressed in E. coli Rosetta2 (DE3) pLysS cells; GST (N); made in house; host or cells: E. coli Rosetta2 (DE3) pLysS
T3 sequence (Q8WYB5 211-322 F287A): T1 sequence (Q8WYB5 211-322 F218A) with A8F, F77A
Protocol: MORFDPF mutants (F287A, D289A, F218A, R276E, R306E/K309E, and F287A/R306E/K309E) were generated using the Quick Change site-directed lightning mutagenesis protocol (Stratagene) (Supplementary Table 2). Unlabeled and ^15N-labeled WT and mutated MORFDPF (residues 211–322) were expressed in E. coli Rosetta2 (DE3) pLysS cells grown in LB or NH4Cl (Sigma-Aldrich) minimal media supplemented with 50 µM ZnCl2. After induction with IPTG (final concentration 0.5 mM) (Gold Biotechnology) for 16 h at 18 °C, cells were harvested via centrifugation and lysed by freeze-thaw followed by sonication. […]
^1H,^15N HSQC spectra were collected at 298 K on Varian INOVA 600 MHz and 900 MHz spectrometers. The binding was monitored by titrating H3 peptides (residues 1–19) into NMR samples containing 0.1–0.25 mM uniformly ^15N-labeled WT or mutated MORFDPF in 1×PBS pH 6.5 buffer supplemented with 5 mM DTT and 8–10% D2O. NMR data were processed and analyzed as previously described. The Kd values were determined by a nonlinear least-squares analysis in Kaleidagraph using the following equation:1 Δδ=ΔδmaxL+P+Kd−L+P+Kd^2−4PL∕2P, where [L] is concentration of the peptide, [P] is concentration of the protein, Δδ is the observed chemical shift change, and Δδmax is the normalized chemical shift change at saturation. […]

H3K14ac: H3 peptide pre-acetylated at Lys14; residues 1–19 (binding), 1–29 (HAT)
Kd (MORFDPF F218A; Run1): 3.5 | Kd (MORFDPF F218A; Run2): 2.6 | Kd (MORFDPF F218A; Run3): 1.6 | Kd [1]: 1.9 µM | Kd (MORFDPF F287A; MORFDPF F287A, NMR HSQC titration, 0.1–[…] 15N-labeled protein, peptide residues 1–19, PBS pH 6.5, 5 mM DTT, 8–10% D2O, 298 K, ± SD): 3500 ± 1400 µM | decrease in binding of MORFDPF F287A compared to WT protein (MORFDPF F287A; NMR titration, F287A vs WT, same peptide): ~ 10^3 fold
